## Antibody variant affinities, Ab-14 heavy chain, assay B

The measurements come from Li et al. 2023 (doi:10.1038/s41467-023-39022-2) through the FLAb antibody collection.

Target: peptide PDVDLGDISGINAS, taken from heptad repeat 2 (HR2) of SARS-CoV-2 spike.

Each scFv is VH, a 15-residue (Gly4Ser)3 linker, VL, as in the parent Ab-14, and differs from it in the CDRs of the heavy chain only.
VH: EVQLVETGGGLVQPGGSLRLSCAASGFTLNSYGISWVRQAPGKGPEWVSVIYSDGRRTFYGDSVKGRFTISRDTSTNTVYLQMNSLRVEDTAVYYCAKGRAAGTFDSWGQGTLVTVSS
VL: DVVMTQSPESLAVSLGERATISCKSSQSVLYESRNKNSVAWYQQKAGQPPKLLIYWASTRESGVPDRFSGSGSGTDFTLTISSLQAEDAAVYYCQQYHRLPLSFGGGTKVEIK

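The parent was found by panning a naive human phage display library on the peptide. The variants were designed computationally from a first round of random CDR variants and then made and measured. Several design methods are mixed in this list. The assay is AlphaSeq: two haploid yeast populations carry antibody and antigen on their surface. Binding brings cells together so that they mate, and sequencing counts the barcode pairs among the diploids. Each replicate has its own calibration line, from reference interactions of the BCL2 family. The assay was run in six technical replicates.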

Each variant is given by its three heavy chain CDRs, as the data file delimits them; those of the parent are GFTLNSYGIS, VIYSDGRRTFYGDSVK, GRAAGTFDS. Variants here have more than six changes. Each Kd is an estimate from the mating assay, the geometric mean of the replicates in which the pair was seen; lower is stronger. "not detected" means that the variant was in the library but no mating with the target was seen in any replicate; the authors take this as a sign of poor binding, and no number exists. The authors averaged sequences with at least three values out of six and counted those with two or fewer as poor binders. Nonspecific signal, from three strains lacking the peptide, appeared in 1% of pairings of all heavy chain designs, centred on 120 nM (5% of these signals below 7.0 nM); values are not corrected for it. Of ten entries with the parent sequence, four were seen in most replicates (averages 2.2 nM to 240 nM), three in one and three in none, so single entries are noisy. A sequence measured in both rounds can read differently, since the two assays cover different ranges.

| CDR-H1 | CDR-H2 | CDR-H3 | apparent Kd | replicates with signal |
|---|---|---|---|---|
| GFDIEEYGIS | VIYADGVRTMYADDVK | GNSKTYSLM | not detected | 0/6 |
| GFDLNEYGIS | VIYADGMRTAYADSVK | GQVAGTFDS | 290 pM | 6/6 |
| GFELNEYGIS | VIYADGHRSFFTDTVK | GQQAGIFNV | not detected | 0/6 |
| GFDLNEYGIS | VIYADGSRTAYADSVK | GNVAGTFDL | 540 pM | 6/6 |
| GFDLNEYGIS | VIYADGVRTAYSDSVK | GETAGTFDQ | 680 pM | 6/6 |
| GFDLDEYGIS | VIYADGMRTVYADSVK | GEVAGTFDL | 430 pM | 6/6 |
| GFDLNEYGIS | VIYADGRRTFYTDSVK | GQWAGTFDV | 180 pM | 6/6 |
| GFDLEDYGIS | VIYADGRRTFYADSVK | GNVAGTFDS | 140 pM | 5/6 |
| GFDLDEYGIS | VIYADGKRTAYADSVK | GNVAGTFDE | 840 pM | 6/6 |
| GFDLDEYGIS | VIYADGQRTAYTDSVK | GTNAGTFDV | 300 pM | 1/6 |
| GFDLEDYGIS | VIYADGMRTAYSDSVK | GNVAGTFDV | 320 pM | 6/6 |
| GFDLNEYGIS | VIYADGRRTAYIDSVK | GEIAGTFDE | 320 pM | 6/6 |
| GFDLDEYGIS | VIYADGTRTAYADSVK | GNNAGTFDV | 1.0 nM | 6/6 |
| GFDLNEYGIS | VIYADGRRTFYADSVK | GNLAGTFDQ | 660 pM | 6/6 |
| GFDLNEYGIS | VIYADGVRTAYIDSVK | GEVAGTFDL | 980 pM | 6/6 |
| GFDLNEYGVS | VIYADGKRTFYADHVK | GVNAGGFDT | not detected | 0/6 |
| MFTLNDYGIQ | VIYWDGRRTFYGDSVK | GRAALTHIS | not detected | 0/6 |
| GFDLDEYGIS | VIYADGRRTFYQDSVK | GNVAGTFDL | 250 pM | 6/6 |
| GFDIKEQGIS | VIYADGMRTFYSDKVK | GQNSNGFDM | not detected | 0/6 |
| GFDLNEYGIS | VIYADGRRTFYSDSVK | GNTGGTFDE | 510 pM | 6/6 |
| GFDLNEYGIS | VIYADGMRTAYSDKVK | GNTAGTFDV | 580 pM | 6/6 |
| GFDLNEYGIS | VIYADGRRTFYADKVK | GEFAGTFNV | 1.3 nM | 6/6 |
| GENLEEYGIS | VIYADGMREQYSDSVK | GRQGGFFIV | not detected | 0/6 |
| GFDLNEYGIS | VIYADGMRTAYSDDVK | GNNAGTFDI | 550 pM | 6/6 |
| GFDLEDYGIS | VIYADGVRTAYVDNSK | GENGGALYT | not detected | 0/6 |
| GFDLNEYGIS | VIYADGMRTAYADKVK | GNQAGTFDM | 170 pM | 6/6 |
| GFNFNEYGIS | VIYADGKRKAYSDSVK | GLSAGTMEV | not detected | 0/6 |
| GFDLDEYGIS | VIYADGRRTFYSDSVK | GQTAGTFDV | 330 pM | 6/6 |
| GFSLDEYGIS | VIYADGNRQEYIDAVK | GNYGGDFIE | 1.3 nM | 4/6 |
| GFDLNEYGIS | VIYADGMRTHYTDSVK | GNEAGTFDM | 2.7 nM | 4/6 |
| GFDLDEYGIS | VIYADGMRTFYADSVK | GTNAGTFDA | 730 pM | 6/6 |
| GFQLDEVGIS | VIYADGMRTAYADSFK | GVKSTIIGI | not detected | 0/6 |
| GFSINEYGIS | VIYADGMRTAYVESVK | GTIDENFNT | 3.6 µM | 1/6 |
| GFDLNEYGIS | VIYADGVRTFYSDSVK | GEIAGTFDQ | 400 pM | 6/6 |
| GDGLDEYGIS | VIYADGQRKFYADNVK | GVFSSLGQV | 75 nM | 6/6 |
| GFDLNEYGIS | VIYADGMRTRYAQNFK | GYNSSDLTV | 680 nM | 1/6 |
| GFNLDEYGIS | VIYADGRRTFYADSVK | GNVAGTFDS | 270 pM | 6/6 |
| GFDLNEYGIS | VIYADGRRTAYADSVK | GTNAGTFDL | 280 pM | 6/6 |
| GFDLNEYGIS | VIYADGRRTFYADSVK | GENAGTFLV | 77 nM | 5/6 |
| GFDLNEYGIS | VIYADGQRTAYSDSVK | GNTAGTFDQ | 350 pM | 6/6 |
| GFDLNEYGIS | VIYADGRRTFYTDSVK | GEGAGTFDQ | 4.4 nM | 6/6 |
| GFDLNEYGIS | VIYADGRRTAYSDSVK | GENAGTFDM | 250 pM | 6/6 |
| GDGLEEYGIS | VIYADGMRESYVDDVK | GQTGGTFNL | not detected | 0/6 |
| GFDLGEYGVS | VIYADGHRAAYSDNVK | GAHSGSVQT | not detected | 0/6 |
| GFDLNEYGIS | VIYADGMRTFYADDVK | GNEAGTFDV | 390 pM | 6/6 |
| GFDLNEYGIS | VIYADGVRTAYADSVK | GTNAGTFDL | 370 pM | 6/6 |
| GFDLNEYGIS | VIYADGRRTFYSDSVK | GENAGTFVS | 13 nM | 6/6 |
| GFDLNEYGIS | VIYADGRRTFYSDNVK | GNVGGTFDI | 780 pM | 6/6 |
| GKDIDEYGIS | VIYADGIRTFYNDRVK | GNLGGQFDM | 100 nM | 1/6 |
| GFDLDEYGIS | VIYADGRRTYYADSVK | GTNAGTFDA | 19 nM | 5/6 |
| GFDLNEYGIS | VIYADGMRTVYADSVK | GENAGTFDT | 4.0 nM | 6/6 |
| GFDLNEYGIS | VIYADGSRTAYADNVK | GEVAGTFDQ | 290 pM | 6/6 |
| GFDLNEYGIS | VIYADGKRTAYVDSVK | GENAGTFDV | 2.6 nM | 6/6 |
| GFSLDEMGIS | VIYADGKRSFYQANVK | GVNSGTFNV | not detected | 0/6 |
| GFDLNEYGIS | VIYADGVRTAYTDSVK | GNNAGTFDM | 540 pM | 6/6 |
| GFDLEDYGIS | VIYADGRRTFYADSVK | GEIAGTFDL | 2.7 nM | 6/6 |
| GFDLNEYGIS | VIYADGRRTAYADDVK | GGNAGTFDI | 180 pM | 6/6 |
| GFDLNEYGIS | VIYADGVRKAYADDVK | GNVAGTFDI | 170 pM | 6/6 |
| GFDLDEYGIS | VIYADGVRTAYSDSVK | GNTAGTFDV | 240 pM | 6/6 |
| GFDLNEYGIS | VIYADGMRTAYADDVK | GGNAGTFDL | 850 pM | 6/6 |
| GFDLNEYGIS | VIYADGMRTAYDDSVK | GQLAGTFDF | 200 pM | 6/6 |
| GFDLNEYGIS | VIYADGRRTYYADSVK | GNEAGTFDV | 780 pM | 6/6 |
| GFELDEYGIS | VIYADGKRKAYDDAVK | GFRLGVKLI | not detected | 0/6 |
| GFDLNEYGIS | VIYADGVRTAYQDSVK | GNVAGTFDL | 330 pM | 6/6 |
| GFDLNEYGIS | VIYADGQRTFYADSVK | GETAGTFDQ | 360 pM | 6/6 |
| GFDLNEYGIS | VIYADGKRTFYSDSVK | GNVGGSFDV | 3.3 nM | 6/6 |
| GYDIQDYGIS | VIYADGVRVAYHDSVK | GQMAGFFIL | not detected | 0/6 |
| GFNLDEYGIS | VIYADGMRTAYSDSVK | GNVAGTFDL | 570 pM | 6/6 |
| GFDLNEYGIS | VIYADGMRTAYADKVK | GEVAGTFDI | 160 pM | 6/6 |
| GFDLNEYGIS | VIYADGMRTYYADSVK | GETAGTFDQ | 690 pM | 6/6 |
| GFDLNEYGIS | VIYADGKRTAYADSVK | GENAGTFDQ | 670 pM | 6/6 |

Repeated from above, the 11 best binders with a signal in all replicates:

| CDR-H1 | CDR-H2 | CDR-H3 | apparent Kd | replicates with signal |
|---|---|---|---|---|
| GFDLNEYGIS | VIYADGMRTAYADKVK | GEVAGTFDI | 160 pM | 6/6 |
| GFDLNEYGIS | VIYADGMRTAYADKVK | GNQAGTFDM | 170 pM | 6/6 |
| GFDLNEYGIS | VIYADGVRKAYADDVK | GNVAGTFDI | 170 pM | 6/6 |
| GFDLNEYGIS | VIYADGRRTFYTDSVK | GQWAGTFDV | 180 pM | 6/6 |
| GFDLNEYGIS | VIYADGRRTAYADDVK | GGNAGTFDI | 180 pM | 6/6 |
| GFDLNEYGIS | VIYADGMRTAYDDSVK | GQLAGTFDF | 200 pM | 6/6 |
| GFDLDEYGIS | VIYADGVRTAYSDSVK | GNTAGTFDV | 240 pM | 6/6 |
| GFDLNEYGIS | VIYADGRRTAYSDSVK | GENAGTFDM | 250 pM | 6/6 |
| GFDLDEYGIS | VIYADGRRTFYQDSVK | GNVAGTFDL | 250 pM | 6/6 |
| GFNLDEYGIS | VIYADGRRTFYADSVK | GNVAGTFDS | 270 pM | 6/6 |
| GFDLNEYGIS | VIYADGRRTAYADSVK | GTNAGTFDL | 280 pM | 6/6 |